Data on one compound can be found in patent US20110319464A1, “METHODS FOR TREATING BENIGN PROSTATIC HYPERPLASIA” (KISSEI PHARMACEUTICAL CO., LTD., priority 2007, published 2011).

By UniProt entry, the sequences of proteins in these tests, tags left out. Where a name states a change or a piece, a line headed by the entry shows the natural chain unless it says otherwise.
UniProt P35348: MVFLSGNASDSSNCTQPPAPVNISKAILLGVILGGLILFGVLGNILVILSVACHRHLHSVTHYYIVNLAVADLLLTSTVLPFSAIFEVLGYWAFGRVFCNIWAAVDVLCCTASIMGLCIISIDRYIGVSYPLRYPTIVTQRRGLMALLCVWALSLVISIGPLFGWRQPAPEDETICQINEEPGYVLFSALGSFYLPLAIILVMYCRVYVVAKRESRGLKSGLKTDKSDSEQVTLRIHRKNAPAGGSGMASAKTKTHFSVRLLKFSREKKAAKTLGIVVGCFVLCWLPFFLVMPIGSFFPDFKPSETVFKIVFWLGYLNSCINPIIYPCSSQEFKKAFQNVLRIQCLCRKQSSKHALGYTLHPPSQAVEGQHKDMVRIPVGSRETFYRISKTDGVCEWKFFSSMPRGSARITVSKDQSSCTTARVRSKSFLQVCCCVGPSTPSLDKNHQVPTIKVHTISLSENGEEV

Data set [1] concerns symptoms associated with BPH. The experiment in a line: Efficacy Studies on Silodosin, studies A-E compared (once daily vs twice daily). It is filed as in vivo, human. As to conditions: Table 8; despite a two-fold increase in Cmax. An excerpt:
In addition, the results for IPSS/AUASS for studies A, B, D and E are illustrated in FIGS. 3 to 6, respectively, and the results for Qmax for studies A, B, D and E are illustrated in FIGS. 7 to 10, respectively.

Data set [2] can be described thus: Pharmacokinetic Study on Silodosin (Study US011), once daily for seven days, fed state. The note with it: 4 mg twice daily 7 days (simulated from Table 2a).
A further data set deals with α1A receptor (Homo sapiens, UniProt P35348). As to conditions: background statement; cited from earlier work.

Structures are written as SMILES.

With `C[C@H](Cc1cc2c(c(C(N)=O)c1)N(CCCO)CC2)NCCOc1ccccc1OCC(F)(F)F` [Silodosin], the “cardiovascular adverse events (such as orthostatic hypotension), 8 mg once daily compared with 4 mg twice daily, relative to placebo controls” value in data set [1] is “does not produce a concomitant increase in cardiovascular adverse events”. In addition, the “Estimated Blood Plasma Concentrations” value is 1.73 ng/mL in data set [2] (Day 7, 0 h (t0)); 2.81 ng/mL in data set [2] (Day 7, 0.5 h); 9.77 ng/mL in data set [2] (Day 7, 1 h); 19.31 ng/mL in data set [2] (Day 7, 1.5 h); 31.48 ng/mL in data set [2] (Day 7, 2 h); 32.45 ng/mL in data set [2] (Day 7, 3 h). Also, the “Estimated Blood Plasma Concentrations” value in data set [2] (Day 7, 4 h) was 19.56 ng/mL; in data set [2] (Day 7, 6 h) it was 7.89 ng/mL; in data set [2] (Day 7, 8 h), 5.93 ng/mL; in data set [2] (Day 7, 12 h), 1.73 ng/mL; in data set [2] (Day 7, 16 h), 19.56 ng/mL; in data set [2] (Day 7, 24 h), 3.31 ng/mL. Besides, the “selectivity for the α1A receptor relative to α1B and α1D receptors” value on α1A receptor is given as “high selectivity”.
